From US20030176368A1, “Synthesis of epothilones, intermediates thereto and analogues thereof” (priority 2001, published 2003)

Columns and labels:
Assay type in all cases: cell-based, human
[1] = system: CCRF-CEM; assay: XTT cytotoxicity assay, CCRF-CEM cells; settings: XTT assay following 72 h inhibition; read-out: In vitro Cytotoxicities (IC50) CCRF-CEM
Procedure: (§1) XTT assay following 72 h inhibition. CCRF-CEM is a human T-cell acute lymphoblastic leukemia cell line. The CCRF-CEM/VBL100, CCRF-CEM/VM1, and CCRF-CEM/Taxol cell lines all overexpress P-glycoprotein and display a multidrug resistance phenotype to MDR-associated oncolytics. (Chou et al. Proc. Natl. Acad. Sci. USA 98:8113, 2001; incorporated herein by reference).
(§2) A typical experiment invovles culturing cells (e.g., CCRF-CEM) at an initial density of 2-5×10^4 cells per ml. They are maintained in a 5% CO2-humidified atmosphere at 37° C. in RPMI medium 1640 (GIBCO/BRL) containing penicillin (100 units/ml), streptomycin (100 μg/ml) (GIBCO/BRL), and 5% heat-inactivated fetal bovine serum. For cells that were grown in suspension (such as CCRF-CEM and its sublines), cytotoxicitiy is measured by using the 2,-3-bis(2-methoxy-4-nitro-5-sulfophenyl)-5 carboxanilide)-2H terazodium hydroxide (XTT)-microculture tetrazonium method in duplicate in 96-well microtiter plates. For both methods, the absorbance of each well is measured with a microplate reader (EL-340, Bio-Tek, Burlington, Vt.). Each run entails six or seven concentrations of the tested drugs. Dose-effect relationship data are analyzed with the median-effect plot. […]

[2] = system: CCRF-CEM/VBL100; assay: XTT cytotoxicity assay, vinblastine-resistant CCRF-CEM/VBL100 cells; settings: XTT assay following 72 h inhibition; read-out: In vitro Cytotoxicities (IC50) CCRF-CEM/VBL100
Procedure: as §1, §2

[3] = system: CCRF-CEM/Taxol; assay: XTT cytotoxicity assay, taxol-resistant CCRF-CEM/Taxol cells; settings: XTT assay following 72 h inhibition; read-out: In vitro Cytotoxicities (IC50) CCRF-CEM/Taxol
Procedure: as §1
A typical experiment invovles culturing cells (e.g., CCRF-CEM) at an initial density of 2-5×10^4 cells per ml. They are maintained in a 5% CO2-humidified atmosphere at 37° C. in RPMI medium 1640 (GIBCO/BRL) containing penicillin (100 units/ml), streptomycin (100 μg/ml) (GIBCO/BRL), and 5% heat-inactivated fetal bovine serum. For cells that were grown in suspension (such as CCRF-CEM and its sublines), cytotoxicitiy is measured by using the 2,-3-bis(2-methoxy-4-nitro-5-sulfophenyl)-5 carboxanilide)-2H terazodium hydroxide (XTT)-microculture tetrazonium method in duplicate in 96-well microtiter plates. For both methods, the absorbance of each well is measured with a microplate reader (EL-340, Bio-Tek, Burlington, Vt.). Each run entails six or seven concentrations of the tested drugs. Dose-effect relationship data are analyzed with the median-effect plot.

“10,11-dehydro-14,15-[18]desoxyepothilone B [[18]ddEpoB]” gave an IC50 [1] of 322 nM, an IC50 [2] of 870 nM and an IC50 [3] of 508 nM.
